{"source": "paper PMC6212409", "about": "“Ginsentides: Cysteine and Glycine-rich Peptides from the Ginseng Family with Unusual Disulfide Connectivity” (2018)", "key": {"[1]": {"system": "red blood cells", "experiment": "Hemolytic assay", "settings": "1% suspension in PBS, concentrations up to 100 µM, 37 °C, 1 h, absorbance 415 nm, n = 3"}, "[2]": {"experiment": "Heat stability assay", "settings": "10 μg in 100 μL distilled water, RP-HPLC relative peak area vs room-temperature control, mean, n = 3"}, "[3]": {"system": "THP-1 cells", "experiment": "Immunogenicity assay (cytokine ELISA)", "settings": "6 h treatment, ELISA of supernatant, LPS positive control, n = 3"}, "[4]": {"system": "Huh7 cells", "experiment": "Cell viability assay (MTT)", "settings": "concentrations up to 100 µM, 24 h, absorbance 550 nm, n = 3"}, "[5]": {"experiment": "Acid stability assay", "settings": "0.2 N HCl (0.2 M HCl), 37 °C, 2 h; 10 μg in 100 μL; RP-HPLC vs control without acid; n = 3"}}}
{"smiles": "CC(C)C[C@@H]1NC(=O)[C@@H]2CSSC[C@@H]3NC(=O)[C@H](Cc4c[nH]c5ccccc45)NC(=O)[C@H](C)NC(=O)CNC(=O)CNC(=O)[C@H](CO)NC(=O)[C@H](CCCCN)NC(=O)[C@@H](N)CSSC[C@@H]4NC(=O)[C@H](CSSC[C@H](NC(=O)[C@H](Cc5ccccc5)NC(=O)CNC(=O)[C@H](C(C)C)NC1=O)C(=O)N[C@@H](Cc1ccc(O)cc1)C(=O)NCC(=O)N[C@@H]([C@@H](C)O)C(=O)NCC(=O)N[C@H](C(=O)O)CSSC[C@H](NC(=O)[C@H](CC(N)=O)NC(=O)CNC4=O)C(=O)NCC(=O)N2)NC(=O)CNC(=O)[C@H](Cc1c[nH]cn1)NC(=O)[C@@H]1CCCN1C(=O)[C@H](CC(=O)O)NC(=O)[C@H](Cc1ccccc1)NC(=O)CNC3=O", "values": [{"measurement": "hemolysis", "setting": "[1]", "result": "no change"}, {"measurement": "degradation after heating", "setting": "[2]; 100 °C for 30 min", "result": "less than 10%"}, {"measurement": "degradation after heating", "setting": "[2]; 100 °C for 120 min", "result": 29, "unit": "%"}, {"measurement": "IL-6 secretion", "setting": "[3]", "result": "no observable increase"}, {"measurement": "IL-8 secretion", "setting": "[3]", "result": "no observable increase"}, {"measurement": "IL-10 secretion", "setting": "[3]", "result": "no observable increase"}, {"measurement": "TNF-α secretion", "setting": "[3]", "result": "no observable increase"}, {"measurement": "cell viability (cytotoxicity)", "setting": "[4]", "result": "no change in cell viability"}, {"measurement": "acid stability", "setting": "[5]", "result": "highly stable"}]}
